Target: Progesterone Receptor (PR) (Homo sapiens, UniProt P06401)
Assay: In vitro functional assay for progesterone receptor (PR) antagonists: inhibition of progesterone-induced alkaline phosphatase expression in T47D cells
Details: read-out: PR Ki, antagonist format, 5 nM progesterone, Ki calculated from IC50 with the Cheng-Prusoff equation
Excerpt: 1.0 In vitro Functional Assay for Progesterone Receptor (PR) Antagonists, Agonists and Modulators
The assay for PR antagonism takes advantage of the extensively reported modulation of alkaline phosphatase (AP) expression in human breast T47D mammary carcinoma cells {Beck et al., D. P. (1993). The progesterone antagonist RU486 acquires agonist activity upon stimulation of cAMP signalling pathways. Proc Natl Acad Sci USA 90, 4441-4445; Fensome et al. (2002). New progesterone receptor antagonists: 3,3-disubstituted-5-aryloxindoles. Bioorg Med Chem Lett 12, 3487-3490; Zhang et al., (2002a). 6-Aryl-1,4-dihydro-benzo d1,3oxazin-2-ones: a novel class of potent, selective, and orally active nonsteroidal progesterone receptor antagonists. Journal of Medicinal Chemistry 45, 4379-4382; Zhang et al., (2003). Novel 6-aryl-1,4-dihydrobenzo d oxazine-2-thiones as potent, selective, and orally active nonsteroidal progesterone receptor agonists. Bioorganic & Medicinal Chemistry Letters 13, 1313-1316; Zhang et al., (2002b). Potent nonsteroidal progesterone receptor agonists: synthesis and SAR study of 6-aryl benzoxazines. Bioorganic & Medicinal Chemistry Letters 12, 787-790; Zhang, Z. et al., (2000). In vitro characterization of trimegestone: a new potent and selective progestin. Steroids 65, 637-643}. […] In the absence of progesterone any agonist activity is also observed as an induction of AP activity. […]

The chains behind the UniProt entries cited, without tags or fusion partners.
UniProt P06401, whole entry: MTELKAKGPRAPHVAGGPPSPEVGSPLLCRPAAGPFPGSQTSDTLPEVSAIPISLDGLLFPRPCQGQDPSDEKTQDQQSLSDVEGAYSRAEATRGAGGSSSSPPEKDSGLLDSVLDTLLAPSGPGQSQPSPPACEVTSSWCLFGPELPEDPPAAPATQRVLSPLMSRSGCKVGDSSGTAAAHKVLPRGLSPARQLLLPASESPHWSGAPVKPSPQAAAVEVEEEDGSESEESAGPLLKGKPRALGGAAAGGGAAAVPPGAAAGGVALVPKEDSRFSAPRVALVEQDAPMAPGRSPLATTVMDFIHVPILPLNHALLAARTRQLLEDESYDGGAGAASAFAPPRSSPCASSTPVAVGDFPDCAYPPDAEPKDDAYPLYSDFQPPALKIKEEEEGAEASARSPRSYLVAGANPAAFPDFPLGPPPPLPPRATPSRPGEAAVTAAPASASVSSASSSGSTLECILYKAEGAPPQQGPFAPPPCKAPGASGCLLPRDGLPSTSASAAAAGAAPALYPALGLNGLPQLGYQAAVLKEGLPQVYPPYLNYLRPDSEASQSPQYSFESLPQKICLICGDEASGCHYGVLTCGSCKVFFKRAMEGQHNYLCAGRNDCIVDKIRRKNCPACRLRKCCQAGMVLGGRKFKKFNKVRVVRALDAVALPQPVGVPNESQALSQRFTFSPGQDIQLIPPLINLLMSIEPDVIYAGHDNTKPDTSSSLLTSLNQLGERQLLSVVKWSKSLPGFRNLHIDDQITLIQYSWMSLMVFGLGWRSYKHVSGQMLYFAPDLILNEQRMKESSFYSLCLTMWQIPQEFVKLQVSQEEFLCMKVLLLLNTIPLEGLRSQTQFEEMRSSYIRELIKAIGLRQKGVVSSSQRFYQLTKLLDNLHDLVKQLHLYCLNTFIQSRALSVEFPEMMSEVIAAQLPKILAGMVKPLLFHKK

| SMILES | Ki |
| --- | --- |
| CC(C)n1nc(-c2ccc(C#N)cc2)c(C2CC2)c1C(=O)N[C@H]1Cc2nccn2C1 | 13.4 nM |
| CC(C)n1nc(-c2ccc(C#N)cc2)c(C2CC2)c1C(=O)N[C@@H]1Cc2nccn2C1 | > 57.2 nM |
